Results reported in the supplement of paper PMC11246515.

Experiment: total protein half-life in vivo (active degradation + dilution); higher = more stable protein
[1] = E. coli NCM3722 delta-clpP delta-lon delta-hslV, growth: N-lim chemostat, doubling time 6 h
[2] = E. coli NCM3722 delta-clpP, growth: N-lim chemostat, doubling time 6 h
[3] = E. coli NCM3722 delta-hslV, growth: N-lim chemostat, doubling time 6 h
[4] = E. coli NCM3722 delta-lon, growth: N-lim chemostat, doubling time 6 h
[5] = E. coli NCM3722 delta-smpB, growth: N-lim chemostat, doubling time 6 h
[6] = wild type E. coli NCM3722, growth: C-lim chemostat, doubling time 3 h
[7] = wild type E. coli NCM3722, growth: C-lim chemostat, doubling time 6 h
[8] = wild type E. coli NCM3722, growth: C-lim chemostat, doubling time 12 h
[9] = wild type E. coli NCM3722, growth: N-lim chemostat, doubling time 6 h
[10] = wild type E. coli NCM3722, growth: N-lim chemostat, doubling time 12 h
[11] = wild type E. coli NCM3722, growth: P-lim chemostat, doubling time 6 h
[12] = wild type E. coli NCM3722, growth: P-lim chemostat, doubling time 12 h

Sequence: MAEITASLVKELRERTGAGMMDCKKALTEANGDIELAIENMRKSGAIKAAKKAGNVAADGVIKTKIDGNYGIILEVNCQTDFVAKDAGFQAFADKVLDAAVAGKITDVEVLKAQFEEERVALVAKIGENINIRRVAALEGDVLGSYQHGARIGVLVAAKGADEELVKHIAMHVAASKPEFIKPEDVSAEVVEKEYQVQLDIAMQSGKPKEIAEKMVEGRMKKFTGEVSLTGQPFVMEPSKTVGQLLKEHNAEVTGFIRFEVGEGIEKVETDFAAEVAAMSKQS [P0A6P1]
- total protein half-life in vivo [1]: 5.89 ± 0.95 h
- total protein half-life in vivo [2]: 5.2 ± 0.35 h
- total protein half-life in vivo [3]: 4.6 ± 0.21 h
- total protein half-life in vivo [4]: 4.91 ± 0.42 h
- total protein half-life in vivo [5]: 4.328 ± 0.029 h
- total protein half-life in vivo [6]: 3.06 ± 0.14 h
- total protein half-life in vivo [7]: 5.84 ± 0.24 h
- total protein half-life in vivo [8]: 10.9 ± 1.2 h
- total protein half-life in vivo [9]: 4.62 ± 0.2 h
- total protein half-life in vivo [10]: 7.22 ± 0.41 h
- total protein half-life in vivo [11]: 5.66 ± 0.061 h
- total protein half-life in vivo [12]: 12.21 ± 0.018 h

Sequence: MKFTVEREHLLKPLQQVSGPLGGRPTLPILGNLLLQVADGTLSLTGTDLEMEMVARVALVQPHEPGATTVPARKFFDICRGLPEGAEIAVQLEGERMLVRSGRSRFSLSTLPAADFPNLDDWQSEVEFTLPQATMKRLIEATQFSMAHQDVRYYLNGMLFETEGEELRTVATDGHRLAVCSMPIGQSLPSHSVIVPRKGVIELMRMLDGGDNPLRVQIGSNNIRAHVGDFIFTSKLVDGRFPDYRRVLPKNPDKHLEAGCDLLKQAFARAAILSNEKFRGVRLYVSENQLKITANNPEQEEAEEILDVTYSGAEMEIGFNVSYVLDVLNALKCENVRMMLTDSVSSVQIEDAASQSAAYVVMPMRL [P0A988]
- total protein half-life in vivo [1]: 5.92 ± 0.28 h
- total protein half-life in vivo [2]: 5.79 ± 1.1 h
- total protein half-life in vivo [3]: 5.35 ± 0.51 h
- total protein half-life in vivo [4]: 5.42 ± 0.064 h
- total protein half-life in vivo [5]: 4.45 ± 0.074 h
- total protein half-life in vivo [6]: 3.11 ± 0.14 h
- total protein half-life in vivo [7]: 5.98 ± 0.39 h
- total protein half-life in vivo [8]: 11.3 ± 0.35 h
- total protein half-life in vivo [9]: 4.84 ± 0.25 h
- total protein half-life in vivo [10]: 7.77 ± 0.12 h
- total protein half-life in vivo [11]: 5.93 ± 0.3 h
- total protein half-life in vivo [12]: 11.8 ± 0.36 h

Sequence: MKNATFYLLDNDTTVDGLSAVEQLVCEIAAERWRSGKRVLIACEDEKQAYRLDEALWARPAESFVPHNLAGEGPRGGAPVEIAWPQKRSSSRRDILISLRTSFADFATAFTEVVDFVPYEDSLKQLARERYKAYRVAGFNLNTATWK
- total protein half-life in vivo [1]: 4.98 ± 0.28 h
- total protein half-life in vivo [2]: 4.74 ± 0.71 h
- total protein half-life in vivo [3]: 5.3 h
- total protein half-life in vivo [4]: 6.04 ± 0.24 h
- total protein half-life in vivo [5]: 4.46 ± 0.2 h
- total protein half-life in vivo [8]: 10.8 ± 2.7 h
- total protein half-life in vivo [9]: 4.77 ± 1.3 h
- total protein half-life in vivo [10]: 8.61 ± 0.77 h
- total protein half-life in vivo [11]: 5.13 ± 0.14 h
- total protein half-life in vivo [12]: 13.8 ± 3 h

Sequence: MLKNLAKLDQTEMDKVNVDLAAAGVAFKERYNMPVIAEAVEREQPEHLRSWFRERLIAHRLASVNLSRLPYEPKLK [P0ABS8]
- total protein half-life in vivo [1]: 4.2 h

Sequence: MRWYPWLRPDFEKLVASYQAGRGHHALLIQALPGMGDDALIYALSRYLLCQQPQGHKSCGHCRGCQLMQAGTHPDYYTLAPEKGKNTLGVDAVREVTEKLNEHARLGGAKVVWVTDAALLTDAAANALLKTLEEPPAETWFFLATREPERLLATLRSRCRLHYLAPPPEQYAVTWLSREVTMSQDALLAALRLSAGSPGAALALFQGDNWQARETLCQALAYSVPSGDWYSLLAALNHEQAPARLHWLATLLMDALKRHHGAAQVTNVDVPGLVAELANHLSPSRLQAILGDVCHIREQLMSVTGINRELLITDLLLRIEHYLQPGVVLPVPHL
- total protein half-life in vivo [1]: 5.96 ± 1 h
- total protein half-life in vivo [2]: 5.67 ± 0.35 h
- total protein half-life in vivo [4]: 5.56 h
- total protein half-life in vivo [6]: 3.14 ± 0.54 h
- total protein half-life in vivo [7]: 5.66 ± 0.25 h
- total protein half-life in vivo [8]: 11.3 h
- total protein half-life in vivo [9]: 6.28 h
- total protein half-life in vivo [10]: 8.28 ± 0.98 h
- total protein half-life in vivo [11]: 4.99 ± 0.62 h
- total protein half-life in vivo [12]: 10.245 ± 0.0054 h

Sequence: MSEPRFVHLRVHSDYSMIDGLAKTAPLVKKAAALGMPALAITDFTNLCGLVKFYGAGHGAGIKPIVGADFNVQCDLLGDELTHLTVLAANNTGYQNLTLLISKAYQRGYGAAGPIIDRDWLIELNEGLILLSGGRMGDVGRSLLRGNSALVDECVAFYEEHFPDRYFLELIRTGRPDEESYLHAAVELAEARGLPVVATNDVRFIDSSDFDAHEIRVAIHDGFTLDDPKRPRNYSPQQYMRSEEEMCELFADIPEALANTVEIAKRCNVTVRLGEYFLPQFPTGDMSTEDYLVKRAKEGLEERLAFLFPDEEERLKRRPEYDERLETELQVINQMGFPGYFLIVMEFIQWSKDNGVPVGPGRGSGAGSLVAYALKITDLDPLEFDLLFERFLNPERVSMPDFDVDFCMEKRDQVIEHVADMYGRDAVSQIITFGTMAAKAVIRDVGRVLGHPYGFVDRISKLIPPDPGMTLAKAFEAEPQLPEIYEADEEVKALIDMARKLEGVTRNAGKHAGGVVIAPTKITDFAPLYCDEEGKHPVTQFDKSDVEYAGLVKFDFLGLRTLTIINWALEMINKRRAKNGEPPLDIAAIPLDDKKSFDMLQRSETTAVFQLESRGMKDLIKRLQPDCFEDMIALVALFRPGPLQSGMVDNFIDRKHGREEISYPDVQWQHESLKPVLEPTYGIILYQEQVMQIAQVLSGYTLGGADMLRRAMGKKKPEEMAKQRSVFAEGAEKNGINAELAMKIFDLVEKFAGYGFNKSHSAAYALVSYQTLWLKAHYPAEFMAAVMTADMDNTEKVVGLVDECWRMGLKILPPDINSGLYHFHVNDDGEIVYGIGAIKGVGEGPIEAIIEARNKGGYFRELFDLCARTDTKKLNRRVLEKLIMSGAFDRLGPHRAALMNSLGDALKAADQHAKAEAIGQADMFGVLAEEPEQIEQSYASCQPWPEQVVLDGERETLGLYLTGHPINQYLKEIERYVGGVRLKDMHPTERGKVITAAGLVVAARVMVTKRGNRIGICTLDDRSGRLEVMLFTDALDKYQQLLEKDRILIVSGQVSFDDFSGGLKMTAREVMDIDEAREKYARGLAISLTDRQIDDQLLNRLRQSLEPHRSGTIPVHLYYQRADARARLRFGATWRVSPSDRLLNDLRGLIGSEQVELEFD
- total protein half-life in vivo [1]: 5.61 ± 0.071 h
- total protein half-life in vivo [2]: 6.7 ± 1 h
- total protein half-life in vivo [3]: 3.27 ± 0.39 h
- total protein half-life in vivo [4]: 3.89 ± 0.36 h
- total protein half-life in vivo [5]: 2.9 ± 0.08 h
- total protein half-life in vivo [6]: 2.76 ± 0.063 h
- total protein half-life in vivo [7]: 4.82 ± 0.6 h
- total protein half-life in vivo [8]: 7.83 ± 0.7 h
- total protein half-life in vivo [9]: 3.38 ± 0.12 h
- total protein half-life in vivo [10]: 5.01 ± 0.17 h
- total protein half-life in vivo [11]: 4.659 ± 0.022 h
- total protein half-life in vivo [12]: 8.12 ± 0.42 h

Sequence: MSTAITRQIVLDTETTGMNQIGAHYEGHKIIEIGAVEVVNRRLTGNNFHVYLKPDRLVDPEAFGVHGIADEFLLDKPTFAEVADEFMDYIRGAELVIHNAAFDIGFMDYEFSLLKRDIPKTNTFCKVTDSLAVARKMFPGKRNSLDALCARYEIDNSKRTLHGALLDAQILAEVYLAMTGGQTSMAFAMEGETQQQQGEATIQRIVRQASKLRVVFATDEEIAAHEARLDLVQKKGGSCLWRA
- total protein half-life in vivo [1]: 3.05 ± 0.18 h
- total protein half-life in vivo [2]: 2.05 ± 0.76 h
- total protein half-life in vivo [3]: 1.07 ± 0.32 h
- total protein half-life in vivo [4]: 1.11 ± 0.054 h
- total protein half-life in vivo [5]: 0.973 ± 0.04 h
- total protein half-life in vivo [6]: 0.847 ± 0.019 h
- total protein half-life in vivo [7]: 2.13 ± 1.2 h
- total protein half-life in vivo [8]: 2.57 ± 1.2 h
- total protein half-life in vivo [9]: 1.058 ± 0.0019 h
- total protein half-life in vivo [10]: 1.14 ± 0.05 h
- total protein half-life in vivo [11]: 1.22 ± 0.26 h
- total protein half-life in vivo [12]: 2.26 ± 0.95 h

Sequence: MSYQVLARKWRPQTFADVVGQEHVLTALANGLSLGRIHHAYLFSGTRGVGKTSIARLLAKGLNCETGITATPCGVCDNCREIEQGRFVDLIEIDAASRTKVEDTRDLLDNVQYAPARGRFKVYLIDEVHMLSRHSFNALLKTLEEPPEHVKFLLATTDPQKLPVTILSRCLQFHLKALDVEQIRHQLEHILNEEHIAHEPRALQLLARAAEGSLRDALSLTDQAIASGDGQVSTQAVSAMLGTLDDDQALSLVEAMVEANGERVMALINEAAARGIEWEALLVEMLGLLHRIAMVQLSPAALGNDMAAIELRMRELARTIPPTDIQLYYQTLLIGRKELPYAPDRRMGVEMTLLRALAFHPRMPLPEPEVPRQSFAPVAPTAVMTPTQVPPQPQSAPQQAPTVPLPETTSQVLAARQQLQRVQGATKAKKSEPAAATRARPVNNAALERLASVTDRVQARPVPSALEKAPAKKEAYRWKATTPVMQQKEVVATPKALKKALEHEKTPELAAKLAAEAIERDPWAAQVSQLSLPKLVEQVALNAWKEESDNAVCLHLRSSQRHLNNRGAQQKLAEALSMLKGSTVELTIVEDDNPAVRTPLEWRQAIYEEKLAQARESIIADNNIQTLRRFFDAELDEESIRPI
- total protein half-life in vivo [1]: 4.86 ± 0.35 h
- total protein half-life in vivo [2]: 4.21 ± 0.06 h
- total protein half-life in vivo [3]: 3.22 ± 0.034 h
- total protein half-life in vivo [4]: 3.39 ± 0.42 h
- total protein half-life in vivo [5]: 2.85 ± 0.051 h
- total protein half-life in vivo [6]: 2.63 ± 0.23 h
- total protein half-life in vivo [7]: 4.43 ± 0.12 h
- total protein half-life in vivo [8]: 6.79 ± 0.25 h
- total protein half-life in vivo [9]: 3.28 ± 0.052 h
- total protein half-life in vivo [10]: 4.71 ± 0.33 h
- total protein half-life in vivo [11]: 4.22 ± 0.25 h
- total protein half-life in vivo [12]: 8.12 ± 0.2 h

± gives the standard deviation of the averaged measurements.
